US6451784B1 (priority 1996, dated 2002)
Structures can show the parent of a compound that is named as a salt.

Tested on: adult beagle dogs
Conditions: dog, in vivo

Structure (SMILES)	Clinical Condition	Clinical Pathology	Probable Dose-Limiting Toxicity	Probable dose limiting toxicity	White blood cell count	Histopathology	Bioavailability (inhaled or intranasal)	Clinical conditions	Clinical pathology changes	Systemic bioavailability (inhaled or intranasal)	Effects within the respiratory tract	Systemic effects at the higher dose levels
COc1cccc2c1C(=O)c1c(O)c3c(c(O)c1C2=O)C[C@@](O)(C(=O)CO)C[C@@H]3O[C@H]1C[C@H](N)[C@H](O)[C@H](C)O1 [Doxorubicin, doxorubicin]	increased respiratory rate and mild transient pulmonary edema	↓ WBC	Respiratory	respiratory tract toxicity	decrease in white blood cell count was noted for the higher dosages							
COc1cc([C@@H]2c3cc4c(cc3[C@@H](O[C@@H]3O[C@@H]5CO[C@@H](C)O[C@H]5[C@H](O)[C@H]3O)[C@H]3COC(=O)[C@H]23)OCO4)cc(OC)c1O [Etoposide, etoposide]	Normal	No change				Mild-moderate	Moderate					
CC(=O)O[C@H]1C(=O)[C@@]2(C)[C@H]([C@H](OC(=O)c3ccccc3)[C@]3(O)C[C@H](OC(=O)[C@H](O)[C@@H](NC(=O)c4ccccc4)c4ccccc4)C(C)=C1C3(C)C)[C@]1(OC(C)=O)CO[C@@H]1C[C@@H]2O [Taxol, Paclitaxel]	Normal	↓↓ WBC		myelosuppression and GI toxicity, and not pulmonary toxicity			Proportional	normal	moderate white blood cell count reduction	proportional to dose		
CC[C@]1(O)C[C@H]2CN(CCc3c([nH]c4ccccc34)[C@@](C(=O)OC)(c3cc4c(cc3OC)N(C=O)[C@H]3[C@@](O)(C(=O)OC)[C@H](OC(C)=O)[C@]5(CC)C=CCN6CC[C@]43[C@@H]65)C2)C1 [Vincristine, vincristine]	Normal	↓ WBC	Myelo-			Minimal-mild						
CCC1=C[C@@H]2CN(C1)Cc1c([nH]c3ccccc13)[C@@](C(=O)OC)(c1cc3c(cc1OC)N(C)[C@H]1[C@@](O)(C(=O)OC)[C@H](OC(C)=O)[C@]4(CC)C=CCN5CC[C@]31[C@@H]54)C2 [Vinorelbine, vinorelbine tartrate]	Normal	↓ WBC	Myelo-			Bone marrow					very minimal effects within the respiratory tract, characterized principally by slight inflammation	mild to moderate myelosuppression and lymphoid depletion
